Test results as given in patent US11040981B2, “Pyrrolotriazine compounds and methods of inhibiting TAM kinases” (Syros Pharmaceuticals, Inc., priority 2017, dated 2021).

The chains behind the UniProt entries cited, without tags or fusion partners. Residues count along the entry.
UniProt P30530, 26-894 limits assumed: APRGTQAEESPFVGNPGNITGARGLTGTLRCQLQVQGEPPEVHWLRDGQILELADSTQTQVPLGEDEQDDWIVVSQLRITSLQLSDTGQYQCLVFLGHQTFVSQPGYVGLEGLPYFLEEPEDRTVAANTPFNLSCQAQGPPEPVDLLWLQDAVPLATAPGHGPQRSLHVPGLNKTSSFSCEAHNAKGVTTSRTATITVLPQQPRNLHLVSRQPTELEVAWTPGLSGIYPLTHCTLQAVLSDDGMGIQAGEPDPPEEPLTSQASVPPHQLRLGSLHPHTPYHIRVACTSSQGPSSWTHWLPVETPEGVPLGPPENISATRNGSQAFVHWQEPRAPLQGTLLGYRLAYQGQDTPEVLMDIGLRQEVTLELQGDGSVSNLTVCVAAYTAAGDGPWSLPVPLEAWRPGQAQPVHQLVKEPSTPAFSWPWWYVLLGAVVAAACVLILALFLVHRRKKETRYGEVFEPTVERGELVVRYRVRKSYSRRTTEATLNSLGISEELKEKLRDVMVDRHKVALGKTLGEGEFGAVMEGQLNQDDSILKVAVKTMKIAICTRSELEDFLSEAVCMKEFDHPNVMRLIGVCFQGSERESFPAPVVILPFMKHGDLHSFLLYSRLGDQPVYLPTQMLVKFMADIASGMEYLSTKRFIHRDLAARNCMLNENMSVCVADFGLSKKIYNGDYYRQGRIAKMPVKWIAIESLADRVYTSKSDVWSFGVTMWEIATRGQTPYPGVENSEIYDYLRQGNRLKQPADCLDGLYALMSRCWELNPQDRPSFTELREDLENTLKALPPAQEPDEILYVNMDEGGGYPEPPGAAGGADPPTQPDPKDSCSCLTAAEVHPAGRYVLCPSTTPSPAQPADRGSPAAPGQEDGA
UniProt P36888, 27-993 limits assumed: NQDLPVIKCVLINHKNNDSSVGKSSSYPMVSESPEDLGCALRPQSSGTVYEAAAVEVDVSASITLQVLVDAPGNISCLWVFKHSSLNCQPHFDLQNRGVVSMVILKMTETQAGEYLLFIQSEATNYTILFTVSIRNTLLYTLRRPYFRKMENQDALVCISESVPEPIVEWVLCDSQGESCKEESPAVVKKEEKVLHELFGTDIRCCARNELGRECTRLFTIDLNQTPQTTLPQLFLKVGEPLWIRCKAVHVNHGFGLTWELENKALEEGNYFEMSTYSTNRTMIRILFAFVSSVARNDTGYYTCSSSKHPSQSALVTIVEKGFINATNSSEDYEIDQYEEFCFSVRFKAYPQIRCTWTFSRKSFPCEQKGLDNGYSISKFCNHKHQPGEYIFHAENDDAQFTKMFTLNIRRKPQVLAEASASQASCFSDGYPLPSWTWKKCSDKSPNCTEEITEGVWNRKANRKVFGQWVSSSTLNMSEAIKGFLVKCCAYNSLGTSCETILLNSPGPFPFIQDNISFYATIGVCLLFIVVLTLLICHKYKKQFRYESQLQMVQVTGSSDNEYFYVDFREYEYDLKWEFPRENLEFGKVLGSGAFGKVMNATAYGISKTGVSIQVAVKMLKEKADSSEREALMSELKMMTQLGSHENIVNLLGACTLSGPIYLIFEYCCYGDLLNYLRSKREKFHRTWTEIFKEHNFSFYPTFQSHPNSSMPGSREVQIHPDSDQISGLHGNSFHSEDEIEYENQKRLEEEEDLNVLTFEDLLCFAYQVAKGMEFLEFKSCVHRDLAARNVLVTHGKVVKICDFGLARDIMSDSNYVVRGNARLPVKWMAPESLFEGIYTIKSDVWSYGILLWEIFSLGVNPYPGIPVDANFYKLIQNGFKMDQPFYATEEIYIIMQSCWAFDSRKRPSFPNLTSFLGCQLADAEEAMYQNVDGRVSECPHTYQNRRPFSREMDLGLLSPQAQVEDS
UniProt Q12866, 21-999 limits assumed: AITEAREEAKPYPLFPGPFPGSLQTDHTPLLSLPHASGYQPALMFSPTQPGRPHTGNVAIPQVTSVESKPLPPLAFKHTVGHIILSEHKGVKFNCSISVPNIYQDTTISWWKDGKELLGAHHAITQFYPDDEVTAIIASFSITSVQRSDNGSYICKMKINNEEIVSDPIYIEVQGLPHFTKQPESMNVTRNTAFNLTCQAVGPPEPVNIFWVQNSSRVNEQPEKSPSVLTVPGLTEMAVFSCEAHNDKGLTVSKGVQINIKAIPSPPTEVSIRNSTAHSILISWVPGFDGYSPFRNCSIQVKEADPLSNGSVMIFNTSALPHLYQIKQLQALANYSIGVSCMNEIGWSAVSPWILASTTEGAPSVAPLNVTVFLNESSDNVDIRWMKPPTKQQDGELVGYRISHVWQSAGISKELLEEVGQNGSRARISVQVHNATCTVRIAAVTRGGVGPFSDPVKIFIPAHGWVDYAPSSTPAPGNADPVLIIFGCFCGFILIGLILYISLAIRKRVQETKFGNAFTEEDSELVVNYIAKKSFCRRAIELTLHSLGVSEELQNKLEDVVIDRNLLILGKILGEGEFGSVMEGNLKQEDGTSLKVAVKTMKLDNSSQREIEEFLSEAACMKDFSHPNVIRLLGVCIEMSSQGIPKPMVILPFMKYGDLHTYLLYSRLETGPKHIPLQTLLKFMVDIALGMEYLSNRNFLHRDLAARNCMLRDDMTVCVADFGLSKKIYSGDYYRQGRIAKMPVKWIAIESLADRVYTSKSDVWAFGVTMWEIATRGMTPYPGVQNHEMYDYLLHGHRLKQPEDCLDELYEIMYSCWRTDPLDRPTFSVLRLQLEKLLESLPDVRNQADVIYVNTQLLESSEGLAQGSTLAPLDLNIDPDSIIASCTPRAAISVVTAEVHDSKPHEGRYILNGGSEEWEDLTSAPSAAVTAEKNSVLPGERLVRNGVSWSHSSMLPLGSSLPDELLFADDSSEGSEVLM
UniProt Q06418, 41-890 limits assumed: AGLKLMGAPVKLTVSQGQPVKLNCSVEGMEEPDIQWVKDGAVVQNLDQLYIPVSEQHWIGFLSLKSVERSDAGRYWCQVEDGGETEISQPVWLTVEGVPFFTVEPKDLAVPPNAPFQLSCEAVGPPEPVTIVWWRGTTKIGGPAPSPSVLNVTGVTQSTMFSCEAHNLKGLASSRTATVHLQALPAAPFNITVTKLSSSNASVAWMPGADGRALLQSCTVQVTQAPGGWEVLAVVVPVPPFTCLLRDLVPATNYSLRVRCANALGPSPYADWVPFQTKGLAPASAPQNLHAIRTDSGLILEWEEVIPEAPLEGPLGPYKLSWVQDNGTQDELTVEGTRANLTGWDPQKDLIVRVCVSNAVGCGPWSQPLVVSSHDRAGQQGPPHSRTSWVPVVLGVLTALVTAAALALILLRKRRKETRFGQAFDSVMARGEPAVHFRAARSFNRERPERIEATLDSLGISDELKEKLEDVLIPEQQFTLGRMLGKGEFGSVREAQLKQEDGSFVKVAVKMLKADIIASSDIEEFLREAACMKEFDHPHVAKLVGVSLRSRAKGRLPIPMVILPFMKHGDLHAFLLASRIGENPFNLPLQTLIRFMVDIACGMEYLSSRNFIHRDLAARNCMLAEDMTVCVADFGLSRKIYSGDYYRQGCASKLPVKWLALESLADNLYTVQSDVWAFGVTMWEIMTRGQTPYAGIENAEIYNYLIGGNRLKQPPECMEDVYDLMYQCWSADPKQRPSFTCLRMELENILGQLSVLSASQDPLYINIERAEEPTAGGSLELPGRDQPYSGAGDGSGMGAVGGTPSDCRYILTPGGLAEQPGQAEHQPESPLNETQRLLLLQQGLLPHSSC

molecular target: AXL (Homo sapiens, UniProt P30530); assay: TR-FRET kinase activity assay, AXL; details: read-out: Axl IC50, ATP at Km, 60 minutes
Protocol: (§1) IC50 values for compound inhibition of AXL, FLT3, MERTK and TYRO3 activity were determined by using a TR-FRET activity assay. A polypeptide substrate with a fluorescent label is phosphorylated on a tyrosine by each enzyme, where the now phosphorylated product is bound by a Europium-labeled antibody specific to that phosphorylation site. The proximity between the antibody and the substrate gives a signal known as TR-FRET. As the enzyme is inhibited by compound, less phosphorylated peptide product is made causing a decrease in overall signal.
(§2) Activity assays were performed in a 384-well, small volume, black microplates in an active enzyme volume of 10 μL and final developed volume of 20 μL. Final assay conditions are 50 mM HEPES pH 7.5, 10 mM MgCl2, 1 mM EGTA, 0.01% Brij 35 and 1 mM DTT all at RT. Enzyme, substrate labeled peptide and compound are mixed, and then the reaction is initiated with the addition of ATP at Km concentration for each enzyme. The reaction is allowed to run 60 minutes and then quenched with a 12.5 mM EDTA (ethylenediamine tetraacetic acid) solution. The plate is then developed with the addition of Europium labeled antibody for a final volume of 20 μL and is then incubated for 30 minutes in darkness. Plates are read in a Pherastar plate reader. Data is analyzed in GraphPad PRISM.
(§3) The results of these assays are shown in Table 1, below, wherein “No.” designates compound number (FIG. 1); “A” represents a value of ≤100 nM; “B” a value of >100 nM and ≤1 μM; “C” a value of >1 μM and ≤10 μM; “D” a value of >10 μM; “ND” is not determined. The ratio of Mer to FLT3 is calculated as follows: FLT3 IC50/Mer IC50. “+” represents a ratio of >2.0 and <10; “++” represents a ratio of between 10 and 100; and “+++” represents a ratio of >100.

Row | SMILES | IC50 [nM]
1 | C[C@H](Nc1ncc2c(-c3cnn(C4COC4)c3)cc([C@H]3CC[C@H](O)CC3)n2n1)c1ccccc1 | < 100
2 | C[C@@H](Nc1ncc2c(-c3cnn(C4COC4)c3)cc([C@H]3CC[C@H](O)CC3)n2n1)c1ccccn1 | 1000 to 10000
3 | C[C@@H](Nc1ncc2c(-c3cnn(C4COC4)c3)cc([C@H]3CC[C@H](O)CC3)n2n1)c1ccccc1 | 1000 to 10000
4 | COC[C@H](C)Nc1ncc2c([C@H]3CCCN(C(=O)OC(C)(C)C)C3)cc([C@H]3CC[C@H](O)CC3)n2n1 | 100 to 1000
5 | COC[C@H](C)Nc1ncc2c([C@H]3CCCNC3)cc([C@H]3CC[C@H](O)CC3)n2n1 | 100 to 1000
6 | COC[C@H](C)Nc1ncc2c([C@@H]3CCCN(S(C)(=O)=O)C3)cc([C@H]3CC[C@H](O)CC3)n2n1 | 1000 to 10000
7 | COC[C@H](C)Nc1ncc2c(-c3cnn(C4COC4)c3)cc(C3CCS(=N)(=O)CC3)n2n1 (some centres unmarked) | 1000 to 10000

molecular target: FLT3 (Homo sapiens, UniProt P36888); assay: TR-FRET kinase activity assay, FLT3; details: read-out: Flt3 IC50, ATP at Km, 60 minutes

Row | SMILES | IC50 [nM]
8 | C[C@H](Nc1ncc2c(-c3cnn(C4COC4)c3)cc([C@H]3CC[C@H](O)CC3)n2n1)c1ccccc1 | 1000 to 10000
9 | C[C@@H](Nc1ncc2c(-c3cnn(C4COC4)c3)cc([C@H]3CC[C@H](O)CC3)n2n1)c1ccccn1 | 100 to 1000
10 | C[C@@H](Nc1ncc2c(-c3cnn(C4COC4)c3)cc([C@H]3CC[C@H](O)CC3)n2n1)c1ccccc1 | > 10000
11 | COC[C@H](C)Nc1ncc2c([C@H]3CCCN(C(=O)OC(C)(C)C)C3)cc([C@H]3CC[C@H](O)CC3)n2n1 | 1000 to 10000
12 | COC[C@H](C)Nc1ncc2c([C@H]3CCCNC3)cc([C@H]3CC[C@H](O)CC3)n2n1 | > 10000
13 | COC[C@H](C)Nc1ncc2c([C@@H]3CCCN(S(C)(=O)=O)C3)cc([C@H]3CC[C@H](O)CC3)n2n1 | 1000 to 10000
14 | COC[C@H](C)Nc1ncc2c(-c3cnn(C4COC4)c3)cc(C3CCS(=N)(=O)CC3)n2n1 (some centres unmarked) | 1000 to 10000

molecular target: MERTK (Homo sapiens, UniProt Q12866); assay: TR-FRET kinase activity assay, MERTK; details: ratio calculated as FLT3 IC50/Mer IC50
Protocol: as §1, §2, §3

Row | SMILES | FLT3/Mer ratio (FLT3 IC50/Mer IC50)
15 | C[C@H](Nc1ncc2c(-c3cnn(C4COC4)c3)cc([C@H]3CC[C@H](O)CC3)n2n1)c1ccccc1 | +++ (“+++” represents a ratio of >100)
16 | C[C@@H](Nc1ncc2c(-c3cnn(C4COC4)c3)cc([C@H]3CC[C@H](O)CC3)n2n1)c1ccccn1 | + (“+” represents a ratio of >2.0 and <10)
17 | C[C@@H](Nc1ncc2c(-c3cnn(C4COC4)c3)cc([C@H]3CC[C@H](O)CC3)n2n1)c1ccccc1 | +++ (“+++” represents a ratio of >100)
18 | COC[C@H](C)Nc1ncc2c([C@H]3CCCN(C(=O)OC(C)(C)C)C3)cc([C@H]3CC[C@H](O)CC3)n2n1 | +++ (“+++” represents a ratio of >100)
19 | COC[C@H](C)Nc1ncc2c([C@H]3CCCNC3)cc([C@H]3CC[C@H](O)CC3)n2n1 | +++ (“+++” represents a ratio of >100)
20 | COC[C@H](C)Nc1ncc2c([C@@H]3CCCN(S(C)(=O)=O)C3)cc([C@H]3CC[C@H](O)CC3)n2n1 | +++ (“+++” represents a ratio of >100)
21 | COC[C@H](C)Nc1ncc2c(-c3cnn(C4COC4)c3)cc(C3CCS(=N)(=O)CC3)n2n1 (some centres unmarked) | +++ (“+++” represents a ratio of >100)

same assay, conditions: read-out: Mer IC50; TR-FRET activity assay, ATP at Km, 60 minutes

Row | SMILES | IC50 [nM]
22 | C[C@H](Nc1ncc2c(-c3cnn(C4COC4)c3)cc([C@H]3CC[C@H](O)CC3)n2n1)c1ccccc1 | < 100
23 | C[C@@H](Nc1ncc2c(-c3cnn(C4COC4)c3)cc([C@H]3CC[C@H](O)CC3)n2n1)c1ccccn1 | < 100
24 | C[C@@H](Nc1ncc2c(-c3cnn(C4COC4)c3)cc([C@H]3CC[C@H](O)CC3)n2n1)c1ccccc1 | < 100
25 | COC[C@H](C)Nc1ncc2c([C@H]3CCCN(C(=O)OC(C)(C)C)C3)cc([C@H]3CC[C@H](O)CC3)n2n1 | < 100
26 | COC[C@H](C)Nc1ncc2c([C@H]3CCCNC3)cc([C@H]3CC[C@H](O)CC3)n2n1 | < 100
27 | COC[C@H](C)Nc1ncc2c([C@@H]3CCCN(S(C)(=O)=O)C3)cc([C@H]3CC[C@H](O)CC3)n2n1 | < 100
28 | COC[C@H](C)Nc1ncc2c(-c3cnn(C4COC4)c3)cc(C3CCS(=N)(=O)CC3)n2n1 (some centres unmarked) | < 100

molecular target: TYRO3 (Homo sapiens, UniProt Q06418); assay: TR-FRET kinase activity assay, TYRO3; details: read-out: Tyro3 IC50, ATP at Km, 60 minutes
Protocol: as §1, §2, §3

Row | SMILES | IC50 [nM]
29 | C[C@H](Nc1ncc2c(-c3cnn(C4COC4)c3)cc([C@H]3CC[C@H](O)CC3)n2n1)c1ccccc1 | < 100
30 | C[C@@H](Nc1ncc2c(-c3cnn(C4COC4)c3)cc([C@H]3CC[C@H](O)CC3)n2n1)c1ccccn1 | < 100
31 | C[C@@H](Nc1ncc2c(-c3cnn(C4COC4)c3)cc([C@H]3CC[C@H](O)CC3)n2n1)c1ccccc1 | < 100
32 | COC[C@H](C)Nc1ncc2c([C@H]3CCCN(C(=O)OC(C)(C)C)C3)cc([C@H]3CC[C@H](O)CC3)n2n1 | < 100
33 | COC[C@H](C)Nc1ncc2c([C@H]3CCCNC3)cc([C@H]3CC[C@H](O)CC3)n2n1 | < 100
34 | COC[C@H](C)Nc1ncc2c([C@@H]3CCCN(S(C)(=O)=O)C3)cc([C@H]3CC[C@H](O)CC3)n2n1 | 100 to 1000
35 | COC[C@H](C)Nc1ncc2c(-c3cnn(C4COC4)c3)cc(C3CCS(=N)(=O)CC3)n2n1 (some centres unmarked) | 100 to 1000
